Experiments:
Format in all cases: biochemical
p300 HAT [1] = biological target: T1, p300 HAT (Homo sapiens, UniProt Q09472, DEL1529-1560/M1652G); test: direct radioactive p300 HAT assay (14C-acetyl-CoA transfer to H4-15)
[2] = biological target: AANAT (arylalkylamine N-acetyltransferase) (Ovis aries, UniProt Q29495); test: AANAT coupled spectrophotometric assay; details: 10 μM compound
[3] = biological target: PCAF (p300/CBP-associated factor) (Homo sapiens, UniProt Q92831); test: PCAF coupled spectrophotometric assay; details: 10 μM compound
p300 HAT [4] = biological target: T1, p300 HAT; test: coupled spectrophotometric p300 HAT assay; details: for Percent inhibition of acetyltransferase, p300: 10 μM compound; for % inhibition with 2x coupling enz: 0.2 units α-KGDH (two times); for % inhibition in initial screen: compounds at 100 μM

The chains behind the UniProt entries cited, without tags or fusion partners. A line that says so, or that is headed by a name, gives the form on record, which may keep a tag or linker. Residues count along the entry.
UniProt Q09472, with tags, fused parts or gaps DEL1529-1560/M1652G limits assumed: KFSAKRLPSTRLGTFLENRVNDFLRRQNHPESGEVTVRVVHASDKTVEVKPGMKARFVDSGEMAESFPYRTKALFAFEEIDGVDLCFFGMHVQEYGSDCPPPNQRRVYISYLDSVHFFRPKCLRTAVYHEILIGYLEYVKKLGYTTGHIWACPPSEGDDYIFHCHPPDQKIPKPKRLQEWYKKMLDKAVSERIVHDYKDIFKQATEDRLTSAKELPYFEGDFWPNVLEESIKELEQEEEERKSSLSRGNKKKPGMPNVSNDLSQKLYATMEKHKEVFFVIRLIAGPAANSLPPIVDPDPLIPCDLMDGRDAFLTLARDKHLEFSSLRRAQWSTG
UniProt Q29495, whole entry: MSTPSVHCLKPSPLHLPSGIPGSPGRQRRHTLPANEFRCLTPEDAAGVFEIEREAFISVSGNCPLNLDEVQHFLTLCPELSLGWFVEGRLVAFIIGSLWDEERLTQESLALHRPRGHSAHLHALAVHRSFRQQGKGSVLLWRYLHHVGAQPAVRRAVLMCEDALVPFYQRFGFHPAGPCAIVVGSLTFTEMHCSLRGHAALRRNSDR
UniProt Q92831, 493-658 limits assumed: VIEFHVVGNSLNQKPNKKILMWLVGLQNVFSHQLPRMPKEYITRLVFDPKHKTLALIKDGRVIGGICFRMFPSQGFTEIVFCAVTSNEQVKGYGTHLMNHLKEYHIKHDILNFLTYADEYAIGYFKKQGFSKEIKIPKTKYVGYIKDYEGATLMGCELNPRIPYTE

SMILES: O=C(O)c1ccc(O)c(/C=N/c2ccc3oc(-c4cccc(I)c4)nc3c2)c1
- % inhibition at 25 uM in radioactive assay (p300 HAT [1]): 77.7%
- Percent inhibition of acetyltransferase, AANAT [2]: <10%
- Percent inhibition of acetyltransferase, PCAF [3]: >95%
- Percent inhibition of acetyltransferase, p300 (p300 HAT [4]): 87%
- % inhibition with 2x coupling enz (p300 HAT [4]): 47.5%
- % inhibition in initial screen (p300 HAT [4]): 43.6%

SMILES: Cc1ccc(NC(=O)CN2C(=O)S/C(=C\c3ccc(-c4ccc(C(=O)O)c(Cl)c4)o3)C2=O)cc1
- % inhibition at 25 uM in radioactive assay (p300 HAT [1]): 90.9%
- Percent inhibition of acetyltransferase, AANAT [2]: 73%
- Percent inhibition of acetyltransferase, p300 (p300 HAT [4]): 79%
- % inhibition with 2x coupling enz (p300 HAT [4]): 67.3%
- % inhibition in initial screen (p300 HAT [4]): 78.8%
